Laboratory results as given in patent publication US4571399A, “7-(1-Methyl-5-p-methylbenzoylpyrrole-2-acetamidoethyl)-theophylline with anti-platelet aggregant and broncholytic activity” (Medosan Industrie Biochimiche Riunite S.p.A., priority 1983, dated 1986).

With `Cc1ccc(C(=O)c2ccc(CC(=O)NCCn3cnc4c3c(=O)n(C)c(=O)n4C)n2C)cc1` [compound (1), 7-(1-methyl-5-p-methylbenzoylpyrrole-2-acetamidoethyl)theophylline] the “mortality over the long or short term” value (doses and routes used in the experiments described) was “no mortality”, the “apparent signs of toxic effects” value (in vivo) was “no apparent signs of toxic effects” and the toxic effects (in vivo) was “no significant toxic effects”.
